Measurements as given in patent US20070112018A1, “Treatment of peripheral arterial occlusive disease” (priority 2005, published 2007).

Test system: C. pneumoniae
Assay: Rabbit model of atherosclerosis accelerated by C. pneumoniae infection, cholesterol diet
Settings: infected rabbits

## CO[C@H]1/C=C/O[C@@]2(C)Oc3c(C)c(O)c4c(=O)c(c5oc6cc(N7CCN(CC(C)C)CC7)cc(O)c6nc-5c4c3C2=O)NC(=O)/C(C)=C\C=C\[C@H](C)[C@H](O)[C@@H](C)[C@@H](O)[C@@H](C)[C@H](OC(C)=O)[C@@H]1C [rifalazil, 3′-hydroxy-5′-(4-isobutyl-1-piperazinyl) benzoxazinorifamycin]
Rifalazil p<0.001, azithromycin p=0.005
  infectious burden of Chlamydia in the vasculature: reduced the infectious burden of Chlamydia in the vasculature
Text p=0.08 rifalazil, p=0.94 azithromycin
  plaque area stenosis compared with placebo-treated animals: trended towards producing significantly reduced plaque area stenosis
